Molecular target: Proto-oncogene tyrosine-protein kinase Src (Homo sapiens, UniProt P12931)
Assay: Binding affinity for p60 c-Src SH2 domain by scintillation proximity assay (SPA)

Sequences of proteins named here, by UniProt entry; tags and fusion partners are left off. A change or cut given only in a name is not applied to a line headed by its entry.
UniProt P12931: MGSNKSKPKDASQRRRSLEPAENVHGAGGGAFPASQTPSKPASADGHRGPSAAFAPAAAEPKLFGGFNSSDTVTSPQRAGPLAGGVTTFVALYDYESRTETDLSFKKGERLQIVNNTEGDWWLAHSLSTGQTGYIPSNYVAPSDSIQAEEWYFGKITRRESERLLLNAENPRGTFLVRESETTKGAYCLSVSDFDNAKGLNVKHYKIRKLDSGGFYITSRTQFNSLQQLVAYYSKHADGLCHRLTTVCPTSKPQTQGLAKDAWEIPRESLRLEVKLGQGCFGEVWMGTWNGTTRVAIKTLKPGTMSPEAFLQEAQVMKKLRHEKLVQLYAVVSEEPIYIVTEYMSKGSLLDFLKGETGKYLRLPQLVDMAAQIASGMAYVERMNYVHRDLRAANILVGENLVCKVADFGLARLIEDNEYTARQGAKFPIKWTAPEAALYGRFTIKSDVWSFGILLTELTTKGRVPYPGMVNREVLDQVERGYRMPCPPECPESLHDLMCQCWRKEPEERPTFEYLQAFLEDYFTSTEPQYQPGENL

CC[C@H](C)[C@H](NC(=O)[C@H](CCC(=O)O)NC(=O)[C@H](CCC(=O)O)NC(=O)[C@H](Cc1ccc(OP(=O)(O)O)cc1)NC(C)=O)C(=O)O was tested, and the IC50 was 150 nM.
